For four compounds, Ki results are on record in BindingDB's records for doi:10.1007/s00210-004-0951-4 (Vernalis Research, 2004).

The chains behind the UniProt entries cited, without tags or fusion partners. Where a name states a change or a piece, a line headed by the entry shows the natural chain unless it says otherwise.
UniProt P28335: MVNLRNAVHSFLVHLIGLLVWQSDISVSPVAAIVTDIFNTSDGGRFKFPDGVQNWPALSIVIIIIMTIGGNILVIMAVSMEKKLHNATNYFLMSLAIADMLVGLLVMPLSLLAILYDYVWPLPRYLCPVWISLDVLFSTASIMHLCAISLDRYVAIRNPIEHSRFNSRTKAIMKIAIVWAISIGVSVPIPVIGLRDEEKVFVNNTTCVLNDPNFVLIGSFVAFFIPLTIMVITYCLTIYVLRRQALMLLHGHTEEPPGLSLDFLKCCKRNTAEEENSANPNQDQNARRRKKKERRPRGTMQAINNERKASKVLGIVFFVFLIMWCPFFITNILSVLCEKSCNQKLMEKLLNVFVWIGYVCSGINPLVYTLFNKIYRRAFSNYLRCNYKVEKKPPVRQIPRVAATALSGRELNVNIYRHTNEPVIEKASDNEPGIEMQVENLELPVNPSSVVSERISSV
UniProt P41595, whole entry: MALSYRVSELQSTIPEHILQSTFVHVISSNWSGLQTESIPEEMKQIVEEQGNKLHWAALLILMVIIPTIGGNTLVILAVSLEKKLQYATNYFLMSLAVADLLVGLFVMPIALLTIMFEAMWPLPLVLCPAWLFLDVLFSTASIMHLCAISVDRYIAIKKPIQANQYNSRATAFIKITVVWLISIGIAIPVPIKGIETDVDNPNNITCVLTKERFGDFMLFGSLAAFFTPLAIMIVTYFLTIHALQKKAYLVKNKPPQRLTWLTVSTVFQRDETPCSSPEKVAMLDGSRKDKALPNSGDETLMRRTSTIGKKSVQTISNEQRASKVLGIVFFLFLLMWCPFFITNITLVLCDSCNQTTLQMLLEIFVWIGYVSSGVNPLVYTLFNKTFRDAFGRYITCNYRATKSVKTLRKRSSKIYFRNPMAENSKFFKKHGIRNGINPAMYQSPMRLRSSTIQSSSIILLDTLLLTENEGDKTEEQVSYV
UniProt P28223, whole entry: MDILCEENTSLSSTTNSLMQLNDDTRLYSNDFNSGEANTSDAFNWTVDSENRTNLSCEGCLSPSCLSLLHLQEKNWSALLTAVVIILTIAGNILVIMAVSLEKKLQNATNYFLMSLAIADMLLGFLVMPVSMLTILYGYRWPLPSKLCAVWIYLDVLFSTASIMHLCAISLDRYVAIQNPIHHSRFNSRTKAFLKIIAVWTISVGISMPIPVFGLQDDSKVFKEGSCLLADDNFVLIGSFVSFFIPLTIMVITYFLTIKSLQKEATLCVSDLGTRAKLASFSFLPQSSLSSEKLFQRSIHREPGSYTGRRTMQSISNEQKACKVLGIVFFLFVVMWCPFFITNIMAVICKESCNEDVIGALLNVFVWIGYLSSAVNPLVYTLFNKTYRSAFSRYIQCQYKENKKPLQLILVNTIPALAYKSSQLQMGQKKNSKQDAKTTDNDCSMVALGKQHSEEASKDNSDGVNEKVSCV

Assay [1] deals with 5-hydroxytryptamine receptor 2C (Homo sapiens, UniProt P28335).
Assay [2] deals with 5-hydroxytryptamine receptor 2B (Homo sapiens, UniProt P41595).
The target in assay [3] is 5-hydroxytryptamine receptor 2A (Homo sapiens, UniProt P28223).

What is called Ki is the equilibrium dissociation constant of an inhibitor or competing ligand from its target. Consider `Cn1ccc2cc3c(cc21)CCN3C(=O)Nc1cccnc1`, for which, in assay [1], the Ki stood at 16.2 nM. That is a double-digit nanomolar value.
`CN1CC(NS(=O)(=O)N(C)C)CC2c3cccc4c3c(cn4C)CC21` (stereo not given) [CAS_64795-35-3] had a Ki in assay [1] of 1.82 nM.
Regarding `CCNC(C)Cc1cccc(C(F)(F)F)c1` (stereo not given) [NSC_3337], the Ki was 5500 nM in assay [2] and 1410 nM in assay [1].
`O=C1NCN(c2ccccc2)C12CCN(CCCOc1ccc(F)cc1)CC2` [NSC_77445] gave a Ki in assay [3] of 22.4 nM. This counts as double-digit nanomolar.
